These results are taken from article PMC11321638 (Advanced Science, 2024).

The subject of one series is recombinant RAB3A. Nature of the series: fluorescence polarization binding of FITC-labeled peptide to recombinant RAB3A. On the technique in general: Fluorescence polarisation rises when a labelled molecule tumbles more slowly, as on binding a larger partner.
For series [1], the system named is interaction between SNAP25 and RAB3A. Nature of the series: competitive fluorescence polarization, inhibition of SNAP25-RAB3A interaction. The series is classed as binding.
The nature of series [2]: transdermal absorption test, Franz Cell System, FITC-labeled samples. Format: in vitro ADME. Conditions: intact skin of Panama Pig, fluorescent image.

With `CSCC[C@H](NC(=O)[C@H](CCC(=O)O)NC(=O)[C@H](CCC(=O)O)NC(=O)[C@H](CC(C)C)NC(=O)[C@H](C)NC(=O)[C@H](CC(N)=O)NC(=O)[C@H](CCCNC(=N)N)NC(=O)[C@H](CCSC)NC(=O)[C@H](Cc1ccccc1)NC(=O)[C@H](CCC(=O)O)NC(=O)[C@@H](N)CO)C(=O)N[C@@H](CC(C)C)C(=O)N[C@@H](CCCNC(=N)N)C(=O)N[C@@H](CCCNC(=N)N)C(=O)N[C@@H](C)C(N)=O` [RSIpep], the “enhancement of binding with RAB3A compared to SNAP25pep” value in the series with recombinant RAB3A is given as “over tenfold enhancement”. In addition, the “efficacy in inhibiting SNAP25-RAB3A interaction relative to SNAP25pep” value in series [1] is listed as “approximately fourfold greater”. The “penetration of the skin (longitudinal sections)” value in series [2] is “formidable resistance”.
